Patent US5714615A (priority 1994, dated 1998)

Sequences of proteins named here, by UniProt entry; tags and fusion partners are left off. Residues count along the entry.
UniProt P09483, 31-630 limits assumed: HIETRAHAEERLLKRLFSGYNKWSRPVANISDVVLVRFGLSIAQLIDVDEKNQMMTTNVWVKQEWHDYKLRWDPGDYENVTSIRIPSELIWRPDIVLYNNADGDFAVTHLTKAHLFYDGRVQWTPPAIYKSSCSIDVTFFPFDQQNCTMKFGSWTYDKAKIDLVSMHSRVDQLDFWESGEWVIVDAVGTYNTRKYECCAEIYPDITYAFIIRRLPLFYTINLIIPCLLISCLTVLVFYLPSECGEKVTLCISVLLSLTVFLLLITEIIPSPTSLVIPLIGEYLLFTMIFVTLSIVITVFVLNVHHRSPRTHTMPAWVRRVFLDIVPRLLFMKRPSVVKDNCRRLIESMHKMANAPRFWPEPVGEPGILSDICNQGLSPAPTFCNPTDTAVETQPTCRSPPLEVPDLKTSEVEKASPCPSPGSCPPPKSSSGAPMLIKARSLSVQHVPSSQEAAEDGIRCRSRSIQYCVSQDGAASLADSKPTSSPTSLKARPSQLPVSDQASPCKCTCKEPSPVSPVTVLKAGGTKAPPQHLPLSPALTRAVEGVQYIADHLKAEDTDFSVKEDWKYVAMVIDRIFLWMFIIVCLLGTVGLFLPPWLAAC
UniProt P12390, 25-500 limits assumed: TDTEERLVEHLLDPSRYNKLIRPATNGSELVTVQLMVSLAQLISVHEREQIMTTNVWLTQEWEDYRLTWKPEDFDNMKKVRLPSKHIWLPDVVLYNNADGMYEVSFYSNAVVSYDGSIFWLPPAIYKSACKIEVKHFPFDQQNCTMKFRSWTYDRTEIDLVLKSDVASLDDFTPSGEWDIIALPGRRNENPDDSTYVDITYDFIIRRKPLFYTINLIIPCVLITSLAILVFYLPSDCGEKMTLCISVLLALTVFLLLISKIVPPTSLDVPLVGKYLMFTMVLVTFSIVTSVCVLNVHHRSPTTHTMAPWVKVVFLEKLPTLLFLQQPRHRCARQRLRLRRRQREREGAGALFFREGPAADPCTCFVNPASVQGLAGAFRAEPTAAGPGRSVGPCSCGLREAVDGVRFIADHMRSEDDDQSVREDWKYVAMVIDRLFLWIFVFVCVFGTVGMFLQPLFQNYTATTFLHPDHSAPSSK

Assays:
[1] = tested on: GD; experiment: Intramuscular pretreatment against GD in mice
[2] = tested on: GD; experiment: Oral pretreatment against GD in mice; details: for oral pretreatment activity against GD (in words): mouse, in vivo; for % survival: oral
[3] = tested on: GA; experiment: Reactivator activity against GA in mice; type: in vivo, Male ICR mice; details: 0.009 mmol/kg i.m.
[4] = target: nicotinic receptor (Rattus norvegicus, UniProt P09483+P12390); experiment: Cortical nicotinic receptor binding, [3H]cytisine displacement; details: high affinity binding
[5] = tested on: DMTS performance; experiment: Delayed matching-to-sample (DMTS) task in monkeys

C[n+]1cccc(O)c1C=NO [Compound 1f]
% survival ([1]; 15 min, 310 mmol/kg i.m.): 30%
% survival ([1]; 60 min, 77 mmol/kg i.m.): 20%

C[n+]1cccc(O)c1C=NNC(=O)C[n+]1ccccc1 [Compound 5a, 2-(3-Hydroxy-1-methyl-2-pyridinemethylene)-1-[2-(1-pyridinium)acetyl] hydrazine dichloride]
% survival ([1]; 15 min, 18-290 mmol/kg i.m.): 70-100%
% survival ([1]; 60 min, 18-290 mmol/kg i.m.): 20-70%
oral pretreatment activity against GD (in words) [2]: not good as an oral pretreatment agent
% survival ([2]; 30 min, 730 mmol/kg): 40%
% survival ([2]; 120 min, 730 mmol/kg): 50%

CN(C)C(=O)Oc1ccc[n+](C)c1C=NOC(c1ccccc1)c1ccccc1
% survival ([1]; 15 min, 0.30 mmol/kg i.m.): 90%
% survival ([1]; 15 min, 5.4 mmol/kg i.m.): 30%
% survival ([2]; 30 min, 120 mmol/kg): 90%
% survival ([2]; 120 min, 120 mmol/kg): 100%

CN(C)C(=O)Oc1ccc(C=NO)[n+](C)c1
% survival ([1]; 15 min, 9.0 mmol/kg i.m.): 90%
% survival ([1]; 15 min, 37 mmol/kg i.m.): 90%
% survival ([1]; 15 min, 150 mmol/kg i.m.): 50%
% survival ([1]; 60 min, 9.0 mmol/kg i.m.): 90%
% survival ([1]; 60 min, 37 mmol/kg i.m.): 70%
% survival ([1]; 60 min, 150 mmol/kg i.m.): 0%

CN(C)C(=O)Oc1ccc[n+](C)c1 [Pyridostigmine, pyridostigmine]
mice surviving, positive control ([1]; pretreatment, 2×LD50 GD): 80-100%
oral pretreatment activity against GD (in words) [2]: no survival

C[n+]1cccc(O)c1C=NOCc1ccccc1 [Compound 1b, O-Benzyl-N-(3-hydroxy-1-methyl-2-pyridinemethylene) hydroxylamine chloride]
% survival ([1]; 15 min, 22 mmol/kg i.m.): 0%
% survival ([1]; 60 min, 22 mmol/kg i.m.): 10%
% survival ([2]; 30 min, 60 mmol/kg): 30%
% survival ([2]; 120 min, 60 mmol/kg): 70%

COc1ccc(CON=Cc2c(OC(=O)N(C)C)ccc[n+]2C)cc1
% survival ([1]; 15/60 min, 0.005-0.11 mmol/kg i.m.): 50-70%
% survival ([2]; 30 min, 2.2 mmol/kg): 100%
% survival ([2]; 120 min, 2.2 mmol/kg): 100%

CN(C)C(=O)Oc1ccc[n+](C)c1C=NOCc1ccccc1
% survival [3]: 30%
% survival ([1]; 15/60 min, 0.009-0.14 mmol/kg i.m.): 80-90%
% survival ([2]; 30 min, […]): 90%
% survival ([2]; 120 min, […]): 80%

C[n+]1cccc(O)c1C=NOCc1ccc(Cl)cc1 [Compound 1d, O-(p-Chlorobenzyl)-N-(3-hydroxy-1-methyl-2-pyridinemethylene) hydroxylamine chloride]
% survival ([1]; 15 min, 9.6 mmol/kg i.m.): 10%

C[n+]1cccc(O)c1C=NNC(=O)Nc1ccccc1.[Cl-] [Compound 3b, 3-Hydroxy-1-methyl-2-[[(N-phenylaminocarbonyl)hydrazono]methyl] pyridinium chloride]
% survival ([1]; 15 min, 1.3 mmol/kg i.m.): 0%
% survival ([1]; 60 min, 5.2 mmol/kg i.m.): 20%

CON=Cc1c(O)ccc[n+]1C [Compound 1c, O-Methyl-N-(3-hydroxy-1-methyl-2-pyridinemethylene) hydroxylamine chloride]
% survival ([2]; 120 min, 200 mmol/kg): 50%

COc1ccc(CON=Cc2c(O)ccc[n+]2C)cc1 [Compound 1e, O-(p-Methoxybenzyl)-N-(3-hydroxy-1-methyl-2-pyridinemethylene) hydroxylamine chloride]
% survival ([1]; 15 min, 320 mmol/kg i.m.): 40%
% survival ([1]; 60 min, 81 mmol/kg i.m.): 10%

CN(C)C(=O)Oc1ccc[n+](C)c1C=NNC(N)=O
% survival ([1]; 15 min, 0.2 mmol/kg i.m.): 50%
% survival ([1]; 15 min, 0.6 mmol/kg i.m.): 80%
% survival ([1]; 15 min, 2.3 mmol/kg i.m.): 80%
% survival ([1]; 60 min, 0.2 mmol/kg i.m.): 90%
% survival ([1]; 60 min, 0.6 mmol/kg i.m.): 100%
% survival ([1]; 60 min, 2.3 mmol/kg i.m.): 80%

C[n+]1cc(O)ccc1C=NO [Compound 1g]
% survival ([1]; 15 min, 16 mmol/kg i.m.): 10%
% survival ([1]; 60 min, 260 mmol/kg i.m.): 20%

CN(C)C(=O)Oc1ccc[n+](C)c1C=NNC(=O)Nc1ccccc1
% survival ([1]; 15 min, 0.65 mmol/kg i.m.): 90%
% survival ([1]; 15 min, 2.7 mmol/kg i.m.): 90%
% survival ([1]; 15 min, 11 mmol/kg i.m.): 40%
% survival ([2]; 30 min, 10 mmol/kg): 70%
% survival ([2]; 120 min, 10 mmol/kg): 100%
potency less than carbachol [4]: about 30 fold
potency less than nicotine [4]: about 600 fold
average best dose ([5]; 11 monkeys, i.m.): 0.054 ± 0.008 mg/kg
choice latencies in DMTS ([5]; 30, 60 and 100 μg/kg i.m.): no significant effect
improvement above baseline at long delay intervals ([5]; best dose 30-100 μg/kg i.m., 11 monkeys): 18 percentage points
improvement as percent of baseline DMTS performance ([5]; best dose, i.m.): 32.2%
increase in DMTS performance ([5]; over 2-3 doses): up to 14 % points

C[n+]1ccccc1C=NNC(=O)C[n+]1ccccc1 [Compound 5b, 2-(1-Methyl-2-pyridinemethylene)-1-[2-(1-pyridinium)acetyl] hydrazine dichloride]
% survival ([1]; 15 min, 24 mmol/kg i.m.): 100%
% survival ([1]; 15 min, 96 mmol/kg i.m.): 100%
% survival ([1]; 60 min, 24 mmol/kg i.m.): 30%
% survival ([1]; 60 min, 96 mmol/kg i.m.): 100%
